Target: T1, ProtA-tagged GLABRA3 (GL3) (Arabidopsis thaliana, UniProt Q9FN69 1-637)
T1 construct: GLABRA3 (GL3), basic helix-loop-helix (bHLH)-like transcription factor, Arabidopsis thaliana; Backbone pTREXdest30; The results write 'GL3-ProtA', but the methods say that the tag is fused to the N-terminus; also called GL3-ProtA; ProtA-tagged GL3; source: HEK293TM cells, transiently expressed, in lysate; not shown: Staphylococcus aureus protein A, N-terminal, kept
T1 sequence (looked up): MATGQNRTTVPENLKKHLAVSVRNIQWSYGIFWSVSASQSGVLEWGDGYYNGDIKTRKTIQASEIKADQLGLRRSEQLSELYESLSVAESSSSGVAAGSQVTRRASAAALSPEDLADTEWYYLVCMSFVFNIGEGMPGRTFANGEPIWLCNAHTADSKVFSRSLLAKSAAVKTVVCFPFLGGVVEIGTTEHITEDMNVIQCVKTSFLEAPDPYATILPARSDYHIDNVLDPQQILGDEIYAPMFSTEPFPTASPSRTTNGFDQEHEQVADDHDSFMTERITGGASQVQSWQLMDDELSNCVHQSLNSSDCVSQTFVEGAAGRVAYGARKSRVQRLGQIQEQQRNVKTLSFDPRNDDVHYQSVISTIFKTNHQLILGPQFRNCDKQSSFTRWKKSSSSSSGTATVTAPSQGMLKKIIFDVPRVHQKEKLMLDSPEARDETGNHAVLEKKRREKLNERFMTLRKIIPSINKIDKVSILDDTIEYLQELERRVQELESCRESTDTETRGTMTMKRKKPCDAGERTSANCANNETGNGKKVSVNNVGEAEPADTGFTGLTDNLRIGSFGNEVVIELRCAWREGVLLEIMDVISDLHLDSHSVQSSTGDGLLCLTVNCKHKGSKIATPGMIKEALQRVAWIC
Test: pull-down; LUMIER pull-down: raw HEK293TM extracts of ProtA-tagged GL3 and a Renilla-tagged protein mixed, dilution series of the ratio, Renilla luminescence on the beads; ratios from HA Western blots; single-site reversible binding model; KD dimensionless and relative to the total GL3 concentration
Settings: partners not purified

relative KD (KD divided by total GL3): 0.5 dimensionless, relative to the total GL3 concentration
B1: Renilla-tagged GLABRA3 (GL3) (natural protein, Arabidopsis thaliana, UniProt Q9FN69 1-637, looked up)
chain: MATGQNRTTVPENLKKHLAVSVRNIQWSYGIFWSVSASQSGVLEWGDGYYNGDIKTRKTIQASEIKADQLGLRRSEQLSELYESLSVAESSSSGVAAGSQVTRRASAAALSPEDLADTEWYYLVCMSFVFNIGEGMPGRTFANGEPIWLCNAHTADSKVFSRSLLAKSAAVKTVVCFPFLGGVVEIGTTEHITEDMNVIQCVKTSFLEAPDPYATILPARSDYHIDNVLDPQQILGDEIYAPMFSTEPFPTASPSRTTNGFDQEHEQVADDHDSFMTERITGGASQVQSWQLMDDELSNCVHQSLNSSDCVSQTFVEGAAGRVAYGARKSRVQRLGQIQEQQRNVKTLSFDPRNDDVHYQSVISTIFKTNHQLILGPQFRNCDKQSSFTRWKKSSSSSSGTATVTAPSQGMLKKIIFDVPRVHQKEKLMLDSPEARDETGNHAVLEKKRREKLNERFMTLRKIIPSINKIDKVSILDDTIEYLQELERRVQELESCRESTDTETRGTMTMKRKKPCDAGERTSANCANNETGNGKKVSVNNVGEAEPADTGFTGLTDNLRIGSFGNEVVIELRCAWREGVLLEIMDVISDLHLDSHSVQSSTGDGLLCLTVNCKHKGSKIATPGMIKEALQRVAWIC
notes: GLABRA3 (GL3), basic helix-loop-helix (bHLH)-like transcription factor, Arabidopsis thaliana; Backbone pTREXdest30; also called GL3-Renilla; source: HEK293TM cells, transiently expressed, in lysate; not shown: Renilla reniformis luciferase (Rluc), N-terminal, kept

— article PMC10948613, “Quantitative analysis of MBW complex formation in the context of trichome patterning” (Frontiers in Plant Science, 2024)
